# Measured affinities in a library of Ab-14 light chain variants

Values reported by Engelhart et al. 2022, doi:10.1038/s41597-022-01779-4 (FLAb copy).

Binding partner: SARS-CoV-2 spike HR2 peptide, sequence PDVDLGDISGINAS.

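The parent was found by panning a naive human phage display library on the peptide. AAYL50 was designed without a model: most single CDR substitutions and a random sample of double and triple ones. Affinity was read by AlphaSeq, a pooled yeast mating assay with surface-displayed partners. After mating in shaken culture at 30 °C for 16 h, diploids were selected and their barcode pairs sequenced. The ratio of observed to expected reads was calibrated, replicate by replicate, on BCL2-family standards whose Kd was known from biolayer interferometry. There are three technical replicates.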

Each scFv is VH, the linker GGGGSGGGGSGGGGS, VL, as in the parent Ab-14, and differs from it in the CDRs of the light chain only.
VH: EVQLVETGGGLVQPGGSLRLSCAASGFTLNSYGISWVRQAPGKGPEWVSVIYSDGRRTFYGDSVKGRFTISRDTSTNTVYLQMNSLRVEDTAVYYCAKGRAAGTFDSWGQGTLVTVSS
VL: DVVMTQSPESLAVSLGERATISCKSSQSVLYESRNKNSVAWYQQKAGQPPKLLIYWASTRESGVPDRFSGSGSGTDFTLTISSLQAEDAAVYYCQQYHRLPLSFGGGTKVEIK

Positions count from residue 1 of the parent VL; Q27S puts S in place of Q. Values are log10 of the apparent Kd in nM; lower means stronger binding. "n.d." marks a missing value. The strain was present, yet no cells mated with the target were sequenced in that replicate, which points to weak or no binding. Background: pairings of library AAYL50 with three empty control strains gave a value in 18% of cases (median 4.19, 5th percentile 2.99). Values in that range, when seen in few replicates, are hard to tell from nonspecific mating. Also given: how often the same scFv was detected with the empty control strains, with their mean in brackets. Parent in this assay: reference entry 0.65, copy in this library 1.68.

| # | changes | log10 Kd, replicates | control signals |
|---|---|---|---|
| 1 | Q27S+V29L+W56Q | -0.27 0.08 -0.13 | 4 of 9 (4.78) |
| 2 | Q27A+S28T+Q96H | 2.84 3.69 3.35 | 4 of 9 (4.26) |
| 3 | L30C+K36G | 3.65 n.d. n.d. | 1 of 9 (4.80) |
| 4 | R60I+H98A+L102W | 4.50 3.77 n.d. | 2 of 9 (4.46) |
| 5 | E32L+N35H+K36D | 1.38 1.37 2.03 | 1 of 9 (3.73) |
| 6 | K24P+R34W+K36W | n.d. n.d. n.d. | 0 of 9 |
| 7 | T59N+P101T+L102N | n.d. 4.48 n.d. | 4 of 9 (4.19) |
| 8 | S33I+R34T+S62N | 0.61 0.42 0.93 | 0 of 9 |
| 9 | S58A+L100M+S103M | 2.32 2.73 2.13 | 1 of 9 (3.18) |
| 10 | A40E+E61P+R99E | 4.32 3.12 3.31 | 3 of 9 (4.25) |
| 11 | S25M+T59K+S103C | 0.11 0.40 0.21 | 4 of 9 (4.80) |
| 12 | S28H+S38N+S58Q | 2.73 2.60 2.85 | 3 of 9 (3.97) |
| 13 | A57P | n.d. n.d. n.d. | 1 of 9 (3.44) |
| 14 | S26D+Q96L+R99T | 0.96 1.01 1.10 | 1 of 9 (2.83) |
| 15 | E32G+W56C+A57V | 0.97 1.09 1.36 | 1 of 9 (4.80) |
| 16 | Y31T+T59K+R60K | 5.38 3.07 n.d. | 3 of 9 (3.44) |
| 17 | K36D+S38Y+H98F | 1.23 1.23 1.70 | 0 of 9 |
| 18 | Q27S+N37R+E61M | 0.61 0.94 0.80 | 2 of 9 (4.03) |
| 19 | Y31L+R34Q+K36W | 1.11 1.12 1.16 | 0 of 9 |
| 20 | E32I+N35W+L102V | n.d. n.d. n.d. | 0 of 9 |
| 21 | Y31R+N37Y+Q96H | 3.79 3.97 3.69 | 2 of 9 (3.73) |
| 22 | S58W+H98W+P101Y | n.d. 2.98 3.15 | 2 of 9 (4.26) |
| 23 | K24C+E61Y+S62H | 1.98 2.25 2.01 | 5 of 9 (4.33) |
| 24 | S58Q+L102V+S103T | 1.33 1.14 1.36 | 3 of 9 (4.01) |
| 25 | L30D+K36Y+R60G | n.d. n.d. 4.94 | 2 of 9 (5.33) |
| 26 | S33K+S38T+A40P | n.d. 3.57 n.d. | 2 of 9 (3.85) |
| 27 | S25R+R34N+T59V | 2.70 2.77 2.66 | 1 of 9 (3.96) |
| 28 | K36P+R99I | 0.64 0.88 0.85 | 1 of 9 (3.82) |
| 29 | T59F+E61W+Q95T | 3.39 3.42 3.94 | 1 of 9 (3.93) |
| 30 | A57F+Q95V+L100C | n.d. 5.04 n.d. | 2 of 9 (3.82) |
| 31 | Q27L+Y31R+S33W | 2.29 4.01 2.04 | 3 of 9 (3.82) |
| 32 | R34K+S38C+Q96R | 3.21 3.46 2.90 | 2 of 9 (3.44) |
| 33 | E32Q+S62Q+L100I | 1.68 1.58 1.66 | 0 of 9 |
| 34 | K36L+A57W+S103V | n.d. n.d. n.d. | 1 of 9 (3.99) |
| 35 | N35Q+Q95L+L102W | 6.15 4.63 n.d. | 1 of 9 (4.04) |
| 36 | N35W+W56Y+Q96M | 2.16 1.85 1.84 | 1 of 9 (3.86) |
| 37 | K36L+Q96R+R99K | 3.25 2.11 4.41 | 0 of 9 |
| 38 | S38V+R60M | n.d. 2.74 n.d. | 0 of 9 |
| 39 | S26Y+V29A+S58R | 2.71 2.70 3.85 | 0 of 9 |
| 40 | R34Y+A40R+Q96H | n.d. n.d. n.d. | 0 of 9 |
| 41 | S26Q+S38K+V39R | n.d. 2.93 n.d. | 0 of 9 |
| 42 | V29R+N35G+R99A | 3.07 2.02 2.53 | 2 of 9 (3.27) |
| 43 | Y31H+S33T+P101D | n.d. n.d. n.d. | 0 of 9 |
| 44 | Q27S+E32A+Q95A | 1.95 2.12 2.04 | 3 of 9 (4.65) |
| 45 | S33T+H98N+L102E | 1.38 1.44 1.50 | 2 of 9 (4.67) |
| 46 | V39I+S62H+P101T | n.d. n.d. n.d. | 0 of 9 |
| 47 | E61I+Q95G+L100M | 1.72 1.74 1.94 | 3 of 9 (4.39) |
| 48 | R34F+S38R+T59L | 2.02 2.16 2.00 | 0 of 9 |
| 49 | S33K+Q95W+R99S | 1.32 1.41 1.69 | 2 of 9 (3.44) |

A selection of 5 entries from above:

changes,"log10 Kd, replicates",control signals
E32Q+S62Q+L100I,1.68 1.58 1.66,0 of 9
L30D+K36Y+R60G,n.d. n.d. 4.94,2 of 9 (5.33)
K36P+R99I,0.64 0.88 0.85,1 of 9 (3.82)
T59F+E61W+Q95T,3.39 3.42 3.94,1 of 9 (3.93)
S25R+R34N+T59V,2.70 2.77 2.66,1 of 9 (3.96)